# Reference: the supplement of paper PMC8728848
# This excerpt belongs to a sample that is enriched for the strongest signals.
# B1: Gal 7 (Mus musculus) (protein)
# chain: MSPILGYWKIKGLVQPTRLLLEYLEEKYEEHLYERDEGDKWRNKKFELGLEFPNLPYYIDGDVKLTQSMAIIRYIADKHNMLGGCPKERAEISMLEGAVLDIRYGVSRIAYSKDFETLKVDFLSKLPEMLKMFEDRLCHKTYLNGDHVTHPDFMLYDALDVVLYMDPMCLDAFPKLVCFKKRIEAIPQIDKYLKSSKYIAWPLQGWQATFGGGDHPPKSDLVPRGSMSATHHKTSLPQGVRVGTVMRIRGMVPDQAGRFHVNLLCGEEQGADAALHFNPRLDTSEVVFNTKEQGKWGREERGTGIPFERGQPFEVLLIATEEGFKAVVGDDEYLHFHHRMPPARVRLVEVGGDVQLHSLNIF
# How the values were obtained:
# Assay in all cases: glycan array binding signal (z-score within array); higher = stronger binding
# Conditions in all cases: glycan notation: IUPAC condensed, linker removed
# [1] = biological target: Fuc(a1-2)Gal(b1-3)[Fuc(a1-4)]GlcNAc(b1-3)[Fuc(a1-3)[Gal(b1-4)]GlcNAc(b1-6)]Gal(b1-4)Glc
# [2] = biological target: Fuc(a1-2)Gal(b1-4)GlcNAc(b1-2)Man(a1-3)[Fuc(a1-2)Gal(b1-4)GlcNAc(b1-2)Man(a1-6)]Man(b1-4)GlcNAc(b1-4)GlcNAc
# [3] = biological target: Fuc(a1-2)Gal(b1-4)GlcNAc(b1-2)[Fuc(a1-2)Gal(b1-4)GlcNAc(b1-4)]Man(a1-3)[Fuc(a1-2)Gal(b1-4)GlcNAc(b1-2)Man(a1-6)]Man(b1-4)GlcNAc(b1-4)GlcNAc
# [4] = biological target: Fuc(a1-2)Gal(b1-4)GlcNAc(b1-3)Gal(b1-4)GlcNAc
# [5] = biological target: Fuc(a1-2)Gal(b1-4)GlcNAc(b1-3)Gal(b1-4)GlcNAc(b1-2)Man(a1-3)[Fuc(a1-2)Gal(b1-4)GlcNAc(b1-3)Gal(b1-4)GlcNAc(b1-2)Man(a1-6)]Man(b1-4)GlcNAc(b1-4)GlcNAc
# [6] = biological target: Fuc(a1-2)Gal(b1-4)GlcNAc(b1-3)Gal(b1-4)GlcNAc(b1-3)Gal(b1-4)GlcNAc
# [7] = biological target: Fuc(a1-2)Gal(b1-4)[Fuc(a1-3)]GlcNAc(b1-3)Gal(b1-4)[Fuc(a1-3)]GlcNAc
# [8] = biological target: Fuc(a1-2)Gal6S(b1-3)GlcNAc
# [9] = biological target: Fuc(a1-2)[GalNAc(a1-3)]Gal
# [10] = biological target: Fuc(a1-2)[GalNAc(a1-3)]Gal(b1-3)GalNAc(a1-3)[Fuc(a1-2)]Gal(b1-4)GlcNAc
# [11] = biological target: Fuc(a1-2)[GalNAc(a1-3)]Gal(b1-3)GalNAc(b1-3)Gal(a1-4)Gal(b1-4)Glc
# [12] = biological target: Fuc(a1-2)[GalNAc(a1-3)]Gal(b1-3)GlcNAc
# [13] = biological target: Fuc(a1-3)[Gal(b1-4)]GlcNAc(b1-3)Gal(b1-4)[Fuc(a1-3)]GlcNAc
# [14] = biological target: Gal(a1-3)Gal(b1-3)GlcNAc
# [15] = biological target: Gal(a1-3)Gal(b1-4)GlcNAc
# [16] = biological target: Gal(a1-3)Gal(b1-4)[Fuc(a1-3)]GlcNAc(b1-2)Man(a1-3)[Gal(a1-3)Gal(b1-4)[Fuc(a1-3)]GlcNAc(b1-2)Man(a1-6)]Man(b1-4)GlcNAc(b1-4)GlcNAc
# [17] = biological target: Gal(a1-4)Gal(b1-4)GlcNAc(b1-3)Gal(b1-4)Glc
# [18] = biological target: Gal(b1-3)Gal(b1-4)GlcNAc
# [19] = biological target: Gal(b1-3)GlcNAc(b1-3)Gal(b1-3)GlcNAc
# [20] = biological target: Gal(b1-3)GlcNAc(b1-3)Gal(b1-4)GlcNAc(b1-2)Man(a1-3)[Gal(b1-3)GlcNAc(b1-3)Gal(b1-4)GlcNAc(b1-2)Man(a1-6)]Man(b1-4)GlcNAc(b1-4)GlcNAc
# [21] = biological target: Gal(b1-3)GlcNAc(b1-3)Gal(b1-4)GlcNAc(b1-2)[Gal(b1-3)GlcNAc(b1-3)Gal(b1-4)GlcNAc(b1-6)]Man(a1-6)[Gal(b1-3)GlcNAc(b1-3)Gal(b1-4)GlcNAc(b1-2)Man(a1-3)]Man(b1-4)GlcNAc(b1-4)[Fuc(a1-6)]GlcNAc
# [22] = biological target: Gal(b1-3)GlcNAc(b1-3)Gal(b1-4)GlcNAc(b1-3)Gal(b1-4)GlcNAc(b1-2)[Gal(b1-3)GlcNAc(b1-3)Gal(b1-4)GlcNAc(b1-3)Gal(b1-4)GlcNAc(b1-6)]Man(a1-6)[Gal(b1-3)GlcNAc(b1-3)Gal(b1-4)GlcNAc(b1-3)Gal(b1-4)GlcNAc(b1-2)Man(a1-3)]Man(b1-4)GlcNAc(b1-4)[Fuc(a1-6)]GlcNAc
# [23] = biological target: Gal(b1-3)GlcNAc(b1-3)Gal(b1-4)GlcNAc(b1-6)[Gal(b1-3)GlcNAc(b1-3)]Gal(b1-4)Glc
# [24] = biological target: Gal(b1-4)GlcNAc(b1-2)Man(a1-6)[GlcNAc(b1-2)Man(a1-3)]Man(b1-4)GlcNAc(b1-4)GlcNAc
# [25] = biological target: Gal(b1-4)GlcNAc(b1-2)[Gal(b1-4)GlcNAc(b1-4)]Man(a1-3)[Gal(b1-4)GlcNAc(b1-2)[Gal(b1-4)GlcNAc(b1-6)]Man(a1-6)]Man(b1-4)GlcNAc(b1-4)GlcNAc
binder,measurement,setting,value
B1,glycan array binding signal (z-score),[1],-0.314
same,glycan array binding signal (z-score),[2],0.231
same,glycan array binding signal (z-score),[3],0.173
same,glycan array binding signal (z-score),[4],6.32
same,glycan array binding signal (z-score),[5],8.38
same,glycan array binding signal (z-score),[6],9.02
same,glycan array binding signal (z-score),[7],-0.337
same,glycan array binding signal (z-score),[8],-0.385
same,glycan array binding signal (z-score),[9],-0.354
same,glycan array binding signal (z-score),[10],-0.323
same,glycan array binding signal (z-score),[11],-0.419
same,glycan array binding signal (z-score),[12],-0.249
same,glycan array binding signal (z-score),[13],-0.33
same,glycan array binding signal (z-score),[14],0.284
same,glycan array binding signal (z-score),[15],0.04
same,glycan array binding signal (z-score),[16],-0.224
same,glycan array binding signal (z-score),[17],-0.277
same,glycan array binding signal (z-score),[18],-0.044
same,glycan array binding signal (z-score),[19],3.23
same,glycan array binding signal (z-score),[20],2.95
same,glycan array binding signal (z-score),[21],2.88
same,glycan array binding signal (z-score),[22],4.51
same,glycan array binding signal (z-score),[23],3.46
same,glycan array binding signal (z-score),[24],-0.175
same,glycan array binding signal (z-score),[25],0.411
